SMILES strings stand for the structures.

This data set can be described thus: physchem.

`Cc1nc2n(c(=O)c1CCN1CCC(c3noc4cc(F)ccc34)CC1)CCCC2` [RISPERIDONE]: the pKa is 3.16.

The values above are taken from ChEMBL document CHEMBL1148791, “High-throughput screening of drug-brain tissue binding and in silico prediction for assessment of central nervous system drug delivery” (J Med Chem, 2007).
